Counter-ions that a name gives are not always drawn. Like-named read-outs stand apart in the source and are kept apart here. Bounds are passed on as bounds.

This experiment addresses recombinant human GST-Syk (Homo sapiens (Human), UniProt P43405). The experiment is described as follows: Homogeneous Time-Resolved Fluorescence (HTRF) Assay for the Recombinant Human Syk Enzyme. In kind it is biochemical. The following applies: recombinant human GST-Syk 5 pM, ATP 25 μM.
The mark [1] stands for this setting: read-out: rhSyk Activity (IC50).
Setting [2] is: read-out: rhSyk Activity (IC50), tested form: ammonium salt.
[3] abbreviates: read-out: rhSyk Activity (IC50), tested form: TFA.

For the compound `CCOC(=O)[C@H]1CC[C@H](C(O)(CC)c2ncc(-c3cc(C)cc(Nc4nccc(C(F)(F)F)n4)c3)s2)CC1` (single isomer, unassigned) [2-5], the IC50 under setting [1] lay in the range of 100 to 1000 nM. In the case of `Cc1cc(Nc2nccc(C(F)(F)F)n2)cc(-c2cnc(C(C)(O)[C@H]3CC[C@H](NS(C)(=O)=O)CC3)s2)c1` (stereo partly drawn), the IC50 under setting [1] was under 100 nM.

`Cc1cc(Nc2nccc(OC(C)C)n2)cc(-c2cnc(C(C)(O)[C@H]3CC[C@H](C(=O)O)CC3)s2)c1` (single isomer, unassigned): under setting [2], the IC50 was under 100 nM. With `Cc1cc(Nc2nccc(C)n2)cc(-c2cnc(C(C)(O)[C@H]3CC[C@H](C(=O)O)CC3)s2)c1` (single isomer, unassigned) [Example 2-52, trans-4-[(1R or S)-hydroxy-1-(5-{3-methyl-5-[(4-methylpyrimidin-2-yl)amino]phenyl}-1,3-thiazol-2-yl)ethyl]cyclohexanecarboxylic acid], the IC50 under setting [1] was under 100 nM. `Cc1cc(Nc2nccc(C(F)(F)F)n2)cc(-c2cnc(C(F)C3CCC(C(=O)O)CC3)s2)c1` (single isomer, unassigned): under setting [3], the IC50 is under 100 nM.

Take `CCOC(=O)C1CCC(C(C)(O)c2ncc(-c3cc(C)cc(Nc4ncc(F)c(OC)n4)c3)s2)CC1C` (single isomer, unassigned): the IC50 under setting [1] was 100 to 1000 nM. For the compound `CCC(O)(c1ncc(-c2cc(C)cc(Nc3nccc(C(F)(F)F)n3)c2)s1)[C@H]1CC[C@H](C(=O)O)CC1` (single isomer, unassigned), the IC50 under setting [1] is under 100 nM. For the compound `Cc1cc(Nc2nccc(C3CC3)n2)cc(-c2cnc(C(C)(O)[C@H]3CC[C@H](C(=O)O)CC3)s2)c1` (single isomer, unassigned), the IC50 is, setting by setting: under setting [2], under 100 nM; (read-out: rhSyk Activity (IC50), tested form: ammonium salt, TFA salt) under 100 nM.

For `Cc1cc(Nc2nccc(C(F)(F)F)n2)cc(-c2cnc(C(C)(O)[C@H]3CC[C@H](c4nn[nH]n4)CC3)s2)c1` (single isomer, unassigned) [Example 6 (faster eluting enantiomer), 2-{[3-(2-{1-hydroxy-1-[trans-4-(2H-tetrazol-5-yl)cyclohexyl]ethyl}-1,3-thiazol-5-yl)-5-methylphenyl]amino}-4-(trifluoromethyl)pyrimidin-1-ium trifluoroacetate], under setting [3], the IC50 is under 100 nM. Turning to `Cc1cc(Nc2nccc(C(F)(F)F)n2)cc(-c2cnc(C(C)(O)C3C4CC(C(=O)O)CC43)s2)c1` (stereo not drawn), the IC50 under setting [3] is under 100 nM. For `Cc1cc(Nc2nccc(C)n2)cc(-c2cnc(C(C)(O)[C@H]3CC[C@H](c4nn[nH]n4)CC3)s2)c1` (single isomer, unassigned), the IC50 runs as follows: under setting [3], under 100 nM; (read-out: rhSyk, 10-dose titration, tested form: TFA) 5 nM. On to `Cc1cc(Nc2nccc(C(F)(F)F)n2)cc(-c2cnc(C(C)(O)[C@@H]3C[C@@H]3C(C)(C)C(=O)O)s2)c1` (relative stereo), for which the IC50 under setting [1] is under 100 nM and the IC50 (read-out: rhSyk, 10-dose titration) was 1 nM. In the case of `Cc1cc(Nc2nccc(C)n2)cc(-c2cnc(C(C)(O)[C@H]3CC[C@H](C#N)CC3)s2)c1` (stereo partly drawn), the IC50 under setting [1] was under 100 nM. Consider `Cc1cc(Nc2nccc(C(F)(F)F)n2)cc(-c2cnc(C(C)(O)[C@@H]3C[C@H](C(=O)O)C3(C)C)s2)c1` (stereo partly drawn), for which, under setting [3], the IC50 was under 100 nM. Consider `Cc1cc(Nc2nccc(C(F)(F)F)n2)cc(-c2cnc(C(O)(CO)[C@H]3CC[C@H](C(=O)O)CC3)s2)c1` (single isomer, unassigned), for which the IC50 under setting [1] is under 100 nM and the IC50 under setting [3] was under 100 nM.

On to `Cc1cc(Nc2nccc(C)n2)cc(-c2cnc(C(C)(O)[C@H]3CC[C@H](NS(C)(=O)=O)CC3)s2)c1` (stereo partly drawn), for which the IC50 under setting [1] was under 100 nM.

On to `CCOC(=O)[C@@H]1CC[C@@H](C(C)(O)c2ncc(-c3cc(C)cc(Nc4nccc(C(F)(F)F)n4)c3)s2)C[C@@H]1C` (single isomer, unassigned), for which the IC50 under setting [1] fell in the range of 100 to 1000 nM.

These data come from patent publication US9290490B2 (Merck Sharp & Dohme Corp., priority 2011, dated 2016).
